Results published in patent publication US10670612B2, “Immunoassay standards and measurement of clinical biomarkers using intra-assay calibration standards” (Saladax Biomedical, Inc., priority 2010, dated 2020).

Experiment: Dynamic light scattering
Assay type: physicochemical
Conditions: for % Intensity / % Mass / % Pd / Mw-R / Radius: phosphate buffer pH 7.4, 25° C.
Description: One set was prepared at 1.0 mg/ml, the second set was prepared at 0.10 mg/ml, and stored at room temperature. Peptides were dissolved by vortexing for 1 min, and centrifuged in a microcentrifuge for 5 min at 14,000 rpm, at room temperature. For Aβ42 samples (MSD), vials containing 0.1 mg peptide were suspended in 1.0 ml buffer, and treated as above. A volume (200 μl) of each centrifuged 1.0 mg/ml stock was transferred to a 0.5 ml polypropylene tube, and provided for NMR analysis.
The absorbance spectra of all samples were recorded (220-750 nm) using a NANODROP® ND-1000 instrument, and blanked against the buffer. Dynamic light scattering analysis was conducted on the peptides in a 384 well polystyrene plate (CORNING®, type 3540) with a Wyatt DLS DynaPro plate reader. Data collection and analysis was completed using software from the manufacturer (DYNAMICS, versions 7.0.0.94 and 7.0.1.12). Each peptide was evaluated in triplicate with 30 μl loaded per well, and overlaid with 5 μl mineral oil, to minimize evaporation. Buffer blanks were also included in the analysis for comparison. After loading the plate, a transparent adhesive sealing tape cover was applied to the plate and the plate was centrifuged for 2 min at 1000 rpm. Each sample on the plate was read 30 times, 5 sec per acquisition, maintaining a temperature of 25° C. Data sets were collected on both the 1.0 mg/ml and 0.10 mg/ml samples over the course of 27 days. The adhesive cover was removed to read the samples in the plate reader, and used to cover the plate between readings over the 27 day time course.
FIGS. 7A through 7F show dynamic light scattering data. In FIGS. 7A-F, the full length Aβ42 peptide was subjected to DLS analysis and compared to four representative modified peptides. […] FIG. 7a represents the raw data accumulated for all five peptides. Shown is the intensity autocorrelation versus time. […] FIGS. 7b-7f depict the percent mass versus the radius of the peptides. Monomeric peptides would be represented by a larger percent mass at the smaller radius size.

Substance	% Intensity (DLS Peak 1) [%]	% Mass (DLS Peak 1) [%]	% Pd (DLS Peak 1) [%]	Mw-R (DLS Peak 1) [kDa]	Radius (DLS Peak 1) [nm]	% Intensity (DLS Peak 2) [%]	% Mass (DLS Peak 2) [%]	% Pd (DLS Peak 2) [%]	Mw-R (DLS Peak 2) [kDa]	Radius (DLS Peak 2) [nm]	% Intensity (DLS Peak 3) [%]	% Mass (DLS Peak 3) [%]	% Pd (DLS Peak 3) [%]	Mw-R (DLS Peak 3) [kDa]	Radius (DLS Peak 3) [nm]	other results
DAEFRHDSGYEVHHQK-PEG(9-ATOMS)5-IGLMVGGVVIA (DAEFRHDSGYEVHHQKIGLMVGGVVIA; (PEG9)5 linker; Modified Peptide; (17)..(31) Sequence comprises a PEG(9-ATOMS)5 linker located between Lys at position 16 and Ile at position 17) [GS#3, native Aβ42 amino acids (1-16)-PEG_9)5 linker-native Aβ42 amino acids (32-42)]	0.4	57.9	0.0	119.0	4.5	4.8	19.7	4.5	2101.0	15.7	94.8	22.4	4.5	51794.0	61.6	aggregation state in solution by DLS (DLS, FIGS. 7A-F): did retain some aggregation
DAEFRHDSGYEVHHQK-{PEG(9-atoms}6-MVGGVVIA (DAEFRHDSGYEVHHQKMVGGVVIA; (PEG9)6 linker; Modified Peptide; (17)..(34) Sequence comprises a PEG(9-ATOMS)6 linker located between Lys at position 16 and Met at position 17) [GS#2, native Aβ42 amino acids (1-16)-(PEG_9)6 linker-native Aβ42 amino acids (35-42)]	1.6	98.0	4.3	3.0	0.9	3.4	1.8	1.9	117.0	4.6	76.1	0.1	3.8	15580.0	36.9	% Intensity (DLS Peak 4): 18.9%; % Mass (DLS Peak 4): 0.1%; % Pd (DLS Peak 4): 4.5%; Mw-R (DLS Peak 4): 572266.0 kDa; Radius (DLS Peak 4): 172.0 nm
DAEFRHDSGYEVHHQK-{PEG(20-atoms}3-GGVVIA (DAEFRHDSGYEVHHQKGGVVIA; (PEG20)3 linker; Modified Peptide; (17)..(36) Sequence comprises a PEG(20-ATOMS)3 linker located between Lys located at position 16 and the Gly located at position 17) [GS#1, native Aβ42 amino acids (1-16)-(PEG_20)3 linker-native Aβ42 amino acids (37-42)]	6.3	99.9	4.6	5.0	1.2	93.7	0.1	3.9	29512.0	48.4	–	–	–	–	–	–
